# Experimental data taken from PubChem BioAssay AID588405 (Sanford-Burnham Center for Chemical Genomics, 2011).
# The entries are a selection whose mix differs from that of the whole data set. The source made the active and inactive calls.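 Rule for the calls: active = inhibition of at least 50% at 20 µM; inactive = the rest.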
# Assay: inhibition of PEG-3 promoter activity – cell-based, HeLa, luciferase luminescence, primary screen (AID 588405)
# Settings: HeLa PEG-Prom luciferase reporter, overnight, at 20 µM, hits give high values
row,Compound,inhibition
1,COc1ccccc1CNC(=O)COC(=O)C(O)(c1ccccc1)c1ccccc1,inactive: 14.3%
2,O=P1(N(CCCl)CCCl)NCCC(C(F)(F)F)O1 (centres undefined),inactive: 9.73%
3,Clc1n[nH]nc1-c1nn[nH][15n]1,inactive: 0.62%
4,CC(C)(C)C(=O)NC(Sc1ncccn1)C(Cl)(Cl)Cl (centres undefined),inactive: 9.97%
5,O=P1(Nc2ccccn2)COc2ccccc2OC1,inactive: 8.33%
6,CCC1=CC2Cc3nc4ccc(Cl)cc4c(N)c3C(C1)C2 (centres undefined),active: 83.5%
7,CCOP(=O)(NC(=NC(C)c1ccccc1)NC(C)c1ccccc1)OCC (centres undefined),inactive: 12.7%
8,CCOP(=O)(Nc1ccc(C)cn1)OCC,inactive: 11.2%
9,CN(CCCl)Cc1cc(Cl)c(NC2=NCCN2)c(Cl)c1,inactive: -6.88%
10,COc1cc(C2NCCC3(OCCO3)C2(C)C)cc(OC)c1OC (centres undefined),inactive: -6.04%
11,CCOP(=O)(Nc1cccc2ccccc12)OCC,inactive: 15%
12,Cc1ccc(NCCc2c([N+](=O)[O-])cc([N+](=O)[O-])cc2[N+](=O)[O-])cc1,inactive: -63.9%
13,Nc1cccc2c([As](=O)(O)O)cccc12,inactive: 20.3%
14,CCCOP(=S)(Nc1nc(N)cc(=O)[nH]1)OCCC,inactive: 4.04%
15,Cc1cccc(OCC(=O)OC2CN3CCC2CC3)c1 (centres undefined),inactive: 1.29%
16,O=[As](O)(c1cccc(O)c1)c1cccc(O)c1,inactive: 3.16%
17,O=C(OC1CN2CCC1CC2)c1ccc(Cl)cc1 (centres undefined),inactive: 1.53%
18,O=[As](O)(O)c1cccnc1,inactive: 6.02%
19,COc1cc(C(=O)NCC2(N3CCOCC3)CCCCC2)cc(Cl)c1OC(C)C,inactive: 9.81%
20,CS(=O)(=O)c1ccc(Cl)c(NC(=O)COC(=O)C(O)(c2ccccc2)c2ccccc2)c1,inactive: 0.83%
21,N#CCCN(C(=O)COC(=O)C(O)(c1ccccc1)c1ccccc1)c1ccc(F)cc1,inactive: 13.6%
22,CCOP1(=S)c2c(C)nn(CCC#N)c2N=C(c2ccc(F)cc2)N1C (centres undefined),inactive: 5.09%
23,CN(C(=O)Cc1ccccc1)[C@@H]1CC[C@]2(CCCO2)C[C@H]1N1CCCC1,inactive: -19.1%
24,O=[N+]([O-])c1ccc2c(c1)nnn2O,inactive: 12.5%
25,CN(C)C(=O)c1cc([N+](=O)[O-])cc2c1-c1c(cc([N+](=O)[O-])cc1[N+](=O)[O-])C2=O,active: 113%

row,Compound,inhibition
1,CN(C(=O)Cc1ccc(Cl)c(Cl)c1)[C@H]1CC[C@@]2(CCCO2)C[C@@H]1N1CCCC1,inactive: -22.9%
2,NC(=O)Nc1ccc([As](=O)(O)O)cc1,inactive: -187%
3,Nc1ccccc1[As](=O)(O)c1ccccc1,inactive: -7.44%
4,O=C(O)COc1ccc([As](=O)(O)O)cc1[N+](=O)[O-],inactive: -14.4%
5,CCOP1(=S)c2c(C)nn(CCC#N)c2N=C(c2ccccc2F)N1C (centres undefined),inactive: 19.9%
6,O=P(Nc1nccs1)(Oc1ccccc1)Oc1ccccc1,inactive: 8.25%
7,O=P(Nc1nccs1)(c1ccccc1)c1nc2ccccc2s1 (centres undefined),inactive: -2.02%
8,CS(=O)(=O)c1cc([N+](=O)[O-])c2no[n+]([O-])c2c1,inactive: -10.1%
9,CC(C)NC(=O)NP(=O)(Oc1ccccc1)Oc1ccccc1,inactive: -2.9%
10,CCN(CC)C(=S)SC(NC=O)C(Cl)(Cl)Cl (centres undefined),inactive: 11.6%
11,O=C(OC1CN2CCC1CC2)c1cccc2[nH]cnc12 (centres undefined),inactive: 3.93%
12,O=[N+]([O-])c1cc([N+](=O)[O-])c(-c2ccn[nH]2)s1,inactive: 43.9%
13,ClCCSc1nnc(-c2cccnc2)o1,inactive: -46.3%
14,COC(=O)C1(C)COP(=O)(N2CCCCCC2)OC1 (centres undefined),inactive: 10.7%
15,CC(C)c1ccc(OP(=O)(Nc2ccccn2)Oc2ccccc2F)cc1 (centres undefined),inactive: 8.88%
16,Cc1ccc(OP(=O)(Nc2ccc([N+](=O)[O-])cn2)Oc2ccc(C)cc2)cc1,inactive: 2.82%
17,Cc1ccc2nc3c(c(C)c2c1)CC(C(Cl)Cl)S3 (centres undefined),inactive: -250%
18,O=[As](O)(c1ccc(O)cc1)c1ccccc1O,inactive: 4.89%
19,C[As](=O)(O)c1cccc(C(=O)O)c1,inactive: 3.25%
20,O=[N+]([O-])c1ccc(-c2cc([N+](=O)[O-])c(O)c([N+](=O)[O-])c2)cc1,inactive: 16.3%
21,COc1cc(C(=O)NCC2(N3CCOCC3)CCCCC2)ccc1OCC(C)C,inactive: 24.1%
22,O=[N+]([O-])c1cc(Oc2ccc([N+](=O)[O-])cc2C(F)(F)F)cc([N+](=O)[O-])c1,inactive: 4.98%
23,COc1ccc(N/C(=N/P(=O)(N2CCOCC2)N2CCOCC2)N2CCOCC2)cc1,inactive: 17.3%
24,O=P1(N(CCCl)CCCl)OCCCN1CCCl (centres undefined),inactive: 3.48%
25,O=P1(N(CCCl)CCCl)Nc2ccccc2N1,inactive: -10.7%

row,Compound,inhibition
1,COc1ccc2nc(NP(=O)(c3ccccc3)c3ccccc3)sc2c1,inactive: 8.3%
2,COc1cc(I)ccc1[As](=O)(O)O,inactive: 5.74%
3,Cc1c2c(nc3ccccc13)SC(C(Cl)Cl)C2 (centres undefined),inactive: -74%
4,O=C(OC1CN2CCC1CC2)C12CC3CC(CC(C3)C1)C2 (centres undefined),inactive: 9.09%
5,Cc1cc(=O)[nH]c(N[N+](=O)[O-])n1,inactive: 21.3%
6,CCC(C)N(CC(C)C)C(=S)SC(NC(C)=O)C(Cl)(Cl)Cl (centres undefined),inactive: 15.9%
7,O=C(OC1CN2CCC1CC2)c1cccc([N+](=O)[O-])c1 (centres undefined),inactive: -0.44%
8,CSc1ccc(Nc2c([N+](=O)[O-])cc([N+](=O)[O-])cc2[N+](=O)[O-])cc1,inactive: 26.4%
9,CCOC(=O)c1ccc(NC(=O)C(C)(CCl)SC)cc1 (centres undefined),inactive: -105%
10,O=C(O)C(=O)c1ccc(N(CCCl)CCCl)cc1,inactive: 5.04%
11,O=C(COc1ccccc1)OC1CN2CCC1CC2 (centres undefined),inactive: 16.3%
12,O=C(Nc1ccncc1[N+](=O)[O-])c1ccc([N+](=O)[O-])cc1[N+](=O)[O-],inactive: 10.3%
13,COP1(=S)c2c(C)nn(CCC#N)c2N=C(c2ccc(F)cc2)N1C (centres undefined),inactive: 11.8%
14,COC(=O)C1(C)COP(=O)(N2CCCC2)OC1 (centres undefined),inactive: -7.2%
15,O=P(Nc1ccccn1)(c1cccc2ccccc12)c1cccc2ccccc12,inactive: 12.4%
16,Cc1cc(SC(NC=O)C(Cl)(Cl)Cl)ncn1 (centres undefined),inactive: 10%
17,O=[N+]([O-])c1ccc(Nc2ccc(Oc3ccc([N+](=O)[O-])cc3[N+](=O)[O-])cc2)c([N+](=O)[O-])c1,inactive: -14.7%
18,CCOC(=O)Nc1cccc([As](=O)(O)O)c1,inactive: 9.37%
19,COP(=O)(OC)N1CC1c1ccccc1 (centres undefined),inactive: -21.3%
20,CCCCOc1ccc(C(=O)NCC2(N3CCCCC3)CCCCC2)cc1OC,inactive: 15.9%
21,Cc1cc(SC(NC(=O)c2ccccc2)C(Cl)(Cl)Cl)nc(C(C)C)n1 (centres undefined),inactive: 7.77%
22,CCOC(=O)Nc1ccc([As](=O)(O)O)c(O)c1,inactive: 7.25%
23,O=C(O)C(O)c1ccc(N(CCCl)CCCl)cc1 (centres undefined),inactive: 4.43%
24,CC1CCNP(=O)(N(CCCl)CCCl)O1 (centres undefined),inactive: 4.58%
